One data set in a line: Kinetic solubility. The following applies: for Kinetic Solubility: PBS buffer pH 7.4, 90 minutes at RT, from 10 mM DMSO stock, UV-VIS; for kinetic solubility compared with Reference Example 3: PBS buffer pH 7.4, in words.
Data set [1] has as its target T1, GLS1 (Homo sapiens, UniProt O94925). Nature of the data set: GLS1 enzymatic assay (three-stage coupled endpoint assay: GLS1/GDH/diaphorase, resorufin fluorescence). The settings on record: read-out: Enzyme IC50.
The nature of data set [2]: In-vivo pharmacokinetics in lung, dosed intranasally in mouse (protocol for compounds of formula (I), Balbc). The settings on record: intranasal; for AUClast in lung / Cmax in lung: 2 mg/kg single dose, male Balbc mouse, vehicle pH 5.2 citrate buffer; for AUClast in lung: up to 24 h; for duration in the lung compared with Reference Examples 1 and 2 / lung concentration compared with prior art compounds / Reference Examples 1 and 2: mouse, in words.

By UniProt entry, the sequences of proteins in these tests, tags left out. Residues count along the entry.
UniProt O94925, 55-669 limits assumed: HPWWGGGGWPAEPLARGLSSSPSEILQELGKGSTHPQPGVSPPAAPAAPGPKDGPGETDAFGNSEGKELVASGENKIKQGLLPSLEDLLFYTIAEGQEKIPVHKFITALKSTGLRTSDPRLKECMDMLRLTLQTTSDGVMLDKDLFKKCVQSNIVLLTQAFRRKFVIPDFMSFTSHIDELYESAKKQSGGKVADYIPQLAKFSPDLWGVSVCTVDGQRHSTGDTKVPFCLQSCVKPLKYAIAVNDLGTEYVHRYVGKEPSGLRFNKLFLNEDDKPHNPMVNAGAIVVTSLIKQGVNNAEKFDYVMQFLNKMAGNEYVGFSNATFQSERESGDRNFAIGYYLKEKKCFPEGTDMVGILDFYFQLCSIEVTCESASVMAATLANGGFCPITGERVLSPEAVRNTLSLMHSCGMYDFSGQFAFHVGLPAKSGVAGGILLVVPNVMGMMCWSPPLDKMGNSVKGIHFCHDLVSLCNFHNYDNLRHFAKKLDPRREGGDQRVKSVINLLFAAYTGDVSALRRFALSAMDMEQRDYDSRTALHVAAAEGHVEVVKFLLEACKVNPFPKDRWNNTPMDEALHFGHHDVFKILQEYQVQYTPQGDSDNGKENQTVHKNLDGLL
UniProt O94925, 73-669 limits assumed: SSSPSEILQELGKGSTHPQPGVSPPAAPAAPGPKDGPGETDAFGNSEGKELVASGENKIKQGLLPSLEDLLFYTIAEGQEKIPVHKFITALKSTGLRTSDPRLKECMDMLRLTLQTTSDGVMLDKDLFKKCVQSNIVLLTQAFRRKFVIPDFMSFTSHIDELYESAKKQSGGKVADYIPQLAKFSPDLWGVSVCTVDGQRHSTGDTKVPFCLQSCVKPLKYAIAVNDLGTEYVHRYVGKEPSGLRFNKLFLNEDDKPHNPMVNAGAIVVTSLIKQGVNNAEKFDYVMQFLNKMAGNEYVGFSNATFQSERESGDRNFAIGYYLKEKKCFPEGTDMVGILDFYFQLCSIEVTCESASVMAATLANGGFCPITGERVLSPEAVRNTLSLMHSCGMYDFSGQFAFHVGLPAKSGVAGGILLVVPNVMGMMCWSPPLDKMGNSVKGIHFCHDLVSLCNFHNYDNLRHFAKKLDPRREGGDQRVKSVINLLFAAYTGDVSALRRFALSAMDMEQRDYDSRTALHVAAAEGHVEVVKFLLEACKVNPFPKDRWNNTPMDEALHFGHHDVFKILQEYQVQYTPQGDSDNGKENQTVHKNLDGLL

For data set [3], the target named is T1, GLS1. Nature of the data set: GLS1 cell assay: intracellular glutamate level in A549 cells (Glutamine/Glutamate-Glo). The settings on record: read-out: Cell IC50, 2 h compound pre-incubation, then 24 h with L-Gln.
The subject of data set [4] is monocrataline induced rat PAH models. The following applies: Bertero et al. 2016; cited from earlier work.
Data set [5] has as its system mouse models of pulmonary fibrosis. The settings on record: induced by Bleomycin or TGF-β1; Cui et al. 2019; cited from earlier work.
A short description of data set [6]: In-vivo pharmacokinetics in lung, dosed intranasally in mouse (protocol for RE1 and RE2, C57bl/6). The following applies: intranasal, 2 mg/kg single dose, male C57bl/6 mouse, vehicle 5% DMSO in 12% (2-hydroxypropyl)-β-cyclodextrin 0.9% NaCl; for AUClast in lung: up to 24 h.

Broadly, the IC50 is the concentration at which inhibition is half-maximal.

Consider `O=C(Cc1ccccc1)Nc1nnc(N[C@@H]2CCN(c3cccnn3)C2)s1`, for which the “Kinetic Solubility” value in “Kinetic solubility” stood at 101.72 µM.

Regarding `O=C(C[C@@H]1CCCN(Cc2cc(F)cc(F)c2)C1)Nc1nnc(N[C@@H]2CCN(c3cccnn3)C2)s1`, the IC50 on GLS1 [1] was determined as 24.2 nM. Moreover, in the data set “Kinetic solubility”, the “Kinetic Solubility” value stood at 252.47 µM and the “kinetic solubility compared with Reference Example 3” value is recorded as “improved kinetic solubility compared with Reference Example 3”. In data set [2], the AUClast in lung came to 49897 ng·h/g; the Cmax in lung is on record as 27200 ng/g; the “duration in the lung compared with Reference Examples 1 and 2” value was “longer duration”; the “lung concentration compared with prior art compounds / Reference Examples 1 and 2” value is on record as “higher lung concentrations”. The IC50 at GLS1 [3] was determined as 4.4 nM.

With `O=C(Cc1cccc(OC(F)(F)F)c1)Nc1ccc(CCCCc2nnc(NC(=O)Cc3ccccn3)s2)nn1`, in data set [4], the “endothelial growth, vessel thickening and right ventricular pressure” value was “decrease endothelial growth, vessel thickening and right ventricular pressure”. Besides, the “efficacy in mouse models of pulmonary fibrosis” value in data set [5] was “shown efficacy in mouse models of pulmonary fibrosis”.

On to `CC1(C)CCC(N2CCOC(CC(=O)Nc3nnc(N[C@@H]4CCN(c5cccnn5)C4)s3)C2)CC1` (single isomer, unassigned) [Example 110], for which, on GLS1 [1], the IC50 stood at 25.7 nM. In “Kinetic solubility”, the “Kinetic Solubility” value was 463.19 µM and the “kinetic solubility compared with Reference Example 3” value is “improved kinetic solubility compared with Reference Example 3”. In data set [2], the AUClast in lung was 127878 ng·h/g; the Cmax in lung came out at 119833 ng/g; the “duration in the lung compared with Reference Examples 1 and 2” value is reported as “longer duration”; the “lung concentration compared with prior art compounds / Reference Examples 1 and 2” value is “higher lung concentrations”. Also, at GLS1 [3], the 50% inhibitory concentration (IC50) was determined as 4.7 nM.

For the compound `CC(C)Oc1ccccc1CN1CCC2(CC1)COC(C(=O)Nc1nnc(N[C@@H]3CCN(c4cccnn4)C3)s1)C2` (stereo partly shown), the half-maximal inhibitory concentration (IC50) at GLS1 [1] amounted to 47.8 nM. Further, in “Kinetic solubility”, the “Kinetic Solubility” value worked out at 508.85 µM and the “kinetic solubility compared with Reference Example 3” value is “improved kinetic solubility compared with Reference Example 3”. Also, the IC50 at GLS1 [3] was found to be 11.8 nM.

In the case of `CC1(C)CC(CN2CCN(CC(=O)Nc3nnc(N[C@@H]4CCN(c5cccnn5)C4)s3)CC2)CC(C)(C)C1`, the results for the IC50 at GLS1 [1] and at GLS1 [3] were 52 nM and 1.7 nM, respectively. The “lung concentration compared with prior art compounds / Reference Examples 1 and 2” value in data set [2] is recorded as “higher lung concentration compared with prior art compounds”.

Regarding `COC(C(=O)Nc1nnc(N[C@@H]2CCN(c3cccnn3)C2)s1)c1cccc(OC(F)(F)F)c1` (mixture of isomers), at GLS1 [1], the IC50 was found to be 97.1 nM. In data set [6], this compound yielded an AUClast in lung of 521 ng·h/g and a Cmax in lung of 1537 ng/g. Besides, at GLS1 [3], the IC50 was 1.08 nM.

With `CC(C)Oc1ccccc1CN1CCC[C@@H](SCC(=O)Nc2nnc(N[C@@H]3CCN(c4cccnn4)C3)s2)C1` (single isomer, unassigned) [Example 101], the IC50 at GLS1 [1] came out at 27.6 nM; on GLS1 [3], 15.8 nM.

Regarding `CC(C)Oc1ccccc1CN1CCC(CCC(=O)Nc2nnc(N[C@@H]3CCN(c4cccnn4)C3)s2)CC1`, the IC50 on GLS1 [1] was found to be 28.1 nM; at GLS1 [3], 34.6 nM.

With `O=C(CC1CCN(Cc2ccc(C(=O)O)cc2)CC1)Nc1nnc(N[C@@H]2CCN(c3cccnn3)C2)s1`, the values for the IC50 at GLS1 [1] and on GLS1 [3] were 103 nM and 10000 nM, respectively.

With `CC(C)Oc1ccccc1CN1CCC[C@@H](CC(=O)Nc2nnc(N[C@@H]3CCN(c4cccnn4)C3)s2)C1`, the IC50 at GLS1 [1] is 40 nM. Besides, in the data set “Kinetic solubility”, the “Kinetic Solubility” value worked out at 530.07 µM and the “kinetic solubility compared with Reference Example 3” value is “improved kinetic solubility compared with Reference Example 3”. Also, the concentration for half-maximal inhibition (IC50) on GLS1 [3] worked out at 33.2 nM.

For the compound `CN(C)[C@H](C(=O)Nc1nnc(N[C@@H]2CCN(c3cccnn3)C2)s1)c1cccc(OC(F)(F)F)c1` (racemic), the 50% inhibitory concentration (IC50) at GLS1 [1] amounted to 52.2 nM; on GLS1 [3] it was 0.74 nM. In data set [6], this compound showed an AUClast in lung of 2624 ng·h/g. The Cmax in lung in data set [6] was found to be 10850 ng/g.

As to `CC(C)Sc1ccccc1CN1CC2(CO[C@@H](CC(=O)Nc3nnc(N[C@@H]4CCN(c5cccnn5)C4)s3)C2)C1` (single isomer, unassigned) [Example 216], the IC50 at GLS1 [1] is 21.4 nM; on GLS1 [3], 4.2 nM.

As to `CC(C)(C)n1cc(CN2CCC(SCC(=O)Nc3nnc(N[C@@H]4CCN(c5cccnn5)C4)s3)CC2)cn1`, the IC50 at GLS1 [1] amounted to 18.7 nM; at GLS1 [3], 47.2 nM.

`CC1(C)CCC(N2CCN(CC(=O)Nc3nnc(N[C@@H]4CCN(c5cccnn5)C4)s3)CC2)CC1`: the IC50 came to 69.1 nM on GLS1 [1] and 22.5 nM at GLS1 [3].

Regarding `CC(C)Sc1ccccc1CN1CC2(COC(CC(=O)Nc3nnc(N[C@@H]4CCN(c5cccnn5)C4)s3)C2)C1` (stereo partly shown), the IC50 on GLS1 [1] came out at 19.9 nM; at GLS1 [3] it was 4 nM.

As to `CCc1onc(C)c1CN1CCC2(CCC(CC(=O)Nc3nnc(N[C@@H]4CCN(c5cccnn5)C4)s3)CC2)CC1`, the IC50 at GLS1 [1] was determined as 17.4 nM; on GLS1 [3], 15 nM.

Take `Cc1ccccc1CN1CCC(C(C(=O)Nc2nnc(N[C@@H]3CCN(c4cccnn4)C3)s2)C2CCC2)CC1` (stereo partly shown): the IC50 was determined as 119 nM on GLS1 [1] and 35.9 nM at GLS1 [3].

As for `O=C(Nc1nnc(N[C@@H]2CCN(c3cccnn3)C2)s1)[C@H]1CC2(CCN(Cc3cccc(OC(F)F)c3)CC2)CO1` (single isomer, unassigned) [Example 196], the IC50 at GLS1 [1] worked out at 31.9 nM; at GLS1 [3], 3.4 nM.

On to `CCC1(CC)CCC(N2CCOC(CC(=O)Nc3nnc(N[C@@H]4CCN(c5cccnn5)C4)s3)C2)CC1` (stereo partly shown), for which the values for the IC50 on GLS1 [1] and on GLS1 [3] were 26 nM and 3 nM, respectively.

In the case of `CC(C)Oc1cccnc1CN1CCC(CC(=O)Nc2nnc(N[C@@H]3CCN(c4cccnn4)C3)s2)CC12CC2` (stereo partly shown), the half-maximal inhibitory concentration (IC50) at GLS1 [1] turned out to be 45 nM; on GLS1 [3], 76.2 nM.

Take `CC1(C)CCC(N2CCCOC(CC(=O)Nc3nnc(N[C@@H]4CCN(c5cccnn5)C4)s3)C2)CC1` (stereo partly shown): the results for the IC50 on GLS1 [1] and at GLS1 [3] were 33.7 nM and 31.1 nM, respectively.

With `O=C(CC1CCN(Cc2cccc(OC(F)(F)F)c2)CC1)Nc1nnc(N[C@@H]2CCN(c3cccnn3)C2)s1`, the results for the IC50 on GLS1 [1] and at GLS1 [3] were 73.2 nM and 4.1 nM, respectively.

`CC(C)Sc1ccc(CN2CCC(CC(=O)Nc3nnc(N[C@@H]4CCN(c5cccnn5)C4)s3)CC2)cc1`: the IC50 on GLS1 [1] stood at 42.1 nM; at GLS1 [3] it was 9.3 nM.

On to `O=C(CC1CC2(CO1)CN(Cc1ccccc1OC1CCCC1)C2)Nc1nnc(N[C@@H]2CCN(c3cccnn3)C2)s1` (stereo partly shown), for which the IC50 is 21.4 nM at GLS1 [1] and 28.3 nM on GLS1 [3].

With `Cc1ccc(CN2CCC3(CC(CC(=O)Nc4nnc(N[C@@H]5CCN(c6cccnn6)C5)s4)C3)C2)c(OC(C)C)c1` (stereo partly shown), the results for the IC50 at GLS1 [1] and on GLS1 [3] were 20 nM and 22.7 nM, respectively.

For the compound `CC1(C)CC(CN2CCC(CC(=O)Nc3nnc(N[C@@H]4CCN(c5cccnn5)C4)s3)CC2)CC(C)(C)C1`, the IC50 worked out at 53.3 nM on GLS1 [1] and 11.9 nM at GLS1 [3].

As for `CC1(C)CCC(CN2CCO[C@H](CC(=O)Nc3nnc(N[C@@H]4CCN(c5cccnn5)C4)s3)C2)CC1` (single isomer, unassigned) [Example 73], the IC50 on GLS1 [1] turned out to be 67.1 nM; at GLS1 [3], 0.9 nM.

(Values after patent US20260384443A1, “THIADIAZOLES AS GLUTAMINASE I INHIBITORS” (published 2026).)
